Data published in ChEMBL document CHEMBL1135454, “SAR and X-ray. A new approach combining fragment-based screening and rational drug design: application to the discovery of nanomolar inhibitors of Src SH2” (J Med Chem, 2002).

Sequences of proteins named here, by UniProt entry; tags and fusion partners are left off. A change or cut given only in a name is not applied to a line headed by its entry.
UniProt P12931: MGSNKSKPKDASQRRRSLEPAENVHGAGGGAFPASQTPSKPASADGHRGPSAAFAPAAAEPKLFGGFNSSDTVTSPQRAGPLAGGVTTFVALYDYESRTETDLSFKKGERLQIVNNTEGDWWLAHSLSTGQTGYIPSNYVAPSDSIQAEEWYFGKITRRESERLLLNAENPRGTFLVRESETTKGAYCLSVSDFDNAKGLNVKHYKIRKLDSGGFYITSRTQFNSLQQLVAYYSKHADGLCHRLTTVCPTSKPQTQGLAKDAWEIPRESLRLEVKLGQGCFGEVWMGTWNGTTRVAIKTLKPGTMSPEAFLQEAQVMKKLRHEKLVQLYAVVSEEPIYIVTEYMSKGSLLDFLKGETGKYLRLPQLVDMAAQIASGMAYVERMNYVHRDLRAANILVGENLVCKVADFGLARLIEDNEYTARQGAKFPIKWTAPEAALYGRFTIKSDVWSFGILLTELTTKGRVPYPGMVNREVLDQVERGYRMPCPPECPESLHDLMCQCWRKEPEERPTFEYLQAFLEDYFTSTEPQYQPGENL

Target: Proto-oncogene tyrosine-protein kinase Src (Homo sapiens, UniProt P12931)
Assay: Binding affinity for Src protein tyrosine kinase SH2 domain using surface plasmon resonance (SPR) assay

CC[C@H](C)[C@H](NC(=O)[C@H](CCC(=O)O)NC(=O)[C@H](CCC(=O)O)NC(=O)[C@H](Cc1ccc(OP(=O)(O)O)cc1)NC(C)=O)C(=O)O
IC50: 9 nM
